The target of one assay is Mtr LpqY Asn134Ala (Mycolicibacterium thermoresistibile, UniProt G7CES0, N154A). Kind of assay: biochemical. It is filed as binding, Mycobacterium thermoresistible.
The target in another assay is Mtr LpqY Glu26Ala (Mycolicibacterium thermoresistibile, UniProt G7CES0, E46A). Kind of assay: biochemical. It is filed as binding, Mycobacterium thermoresistible.

Protein sequences, listed by entry. Tags and fused reporters are not part of them. Residues count along the entry.
UniProt G7CES0, 29-471 N154A: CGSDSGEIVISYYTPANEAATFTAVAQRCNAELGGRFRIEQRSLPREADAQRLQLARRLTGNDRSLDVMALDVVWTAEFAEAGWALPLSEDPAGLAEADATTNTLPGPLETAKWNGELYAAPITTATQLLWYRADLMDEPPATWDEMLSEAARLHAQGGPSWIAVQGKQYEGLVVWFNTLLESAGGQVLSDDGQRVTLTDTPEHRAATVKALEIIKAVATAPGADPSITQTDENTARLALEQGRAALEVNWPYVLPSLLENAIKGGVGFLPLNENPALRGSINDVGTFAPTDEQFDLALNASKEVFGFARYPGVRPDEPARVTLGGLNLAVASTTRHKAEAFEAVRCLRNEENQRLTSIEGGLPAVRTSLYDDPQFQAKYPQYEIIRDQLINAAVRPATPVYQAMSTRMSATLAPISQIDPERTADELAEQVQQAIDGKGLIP
UniProt G7CES0, 29-471 E46A: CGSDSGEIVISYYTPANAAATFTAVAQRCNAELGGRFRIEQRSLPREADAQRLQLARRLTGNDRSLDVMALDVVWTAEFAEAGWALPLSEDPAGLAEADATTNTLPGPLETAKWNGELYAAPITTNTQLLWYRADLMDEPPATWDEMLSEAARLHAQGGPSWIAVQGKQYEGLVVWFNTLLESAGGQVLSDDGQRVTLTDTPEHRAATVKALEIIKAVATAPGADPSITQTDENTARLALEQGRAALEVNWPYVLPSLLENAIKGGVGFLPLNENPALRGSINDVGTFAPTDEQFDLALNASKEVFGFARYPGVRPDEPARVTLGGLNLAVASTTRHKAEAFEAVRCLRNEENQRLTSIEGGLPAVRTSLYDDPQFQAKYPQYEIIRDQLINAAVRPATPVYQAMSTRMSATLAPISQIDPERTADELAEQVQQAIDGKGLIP

For `OC[C@H]1O[C@H](O[C@H]2O[C@H](CO)[C@@H](O)[C@H](O)[C@H]2O)[C@H](O)[C@@H](O)[C@@H]1O` [Trehalose, α-D-glucopyranosyl-α-D-glucopyranoside], the Kd at Mtr LpqY Asn134Ala came out at 9.061 ± 0.0117 mM; at Mtr LpqY Glu26Ala, 0.234 ± 0.0093 mM.
